Patent US20220144812A1, “QUINOLINE DERIVATIVES AND THEIR USE FOR THE TREATMENT OF CANCER” (Epizyme, Inc., priority 2019, published 2022)

Chains of the proteins cited; added tags and fusions are not shown. Residues count along the entry.
UniProt Q92793, 1084-1701 limits assumed: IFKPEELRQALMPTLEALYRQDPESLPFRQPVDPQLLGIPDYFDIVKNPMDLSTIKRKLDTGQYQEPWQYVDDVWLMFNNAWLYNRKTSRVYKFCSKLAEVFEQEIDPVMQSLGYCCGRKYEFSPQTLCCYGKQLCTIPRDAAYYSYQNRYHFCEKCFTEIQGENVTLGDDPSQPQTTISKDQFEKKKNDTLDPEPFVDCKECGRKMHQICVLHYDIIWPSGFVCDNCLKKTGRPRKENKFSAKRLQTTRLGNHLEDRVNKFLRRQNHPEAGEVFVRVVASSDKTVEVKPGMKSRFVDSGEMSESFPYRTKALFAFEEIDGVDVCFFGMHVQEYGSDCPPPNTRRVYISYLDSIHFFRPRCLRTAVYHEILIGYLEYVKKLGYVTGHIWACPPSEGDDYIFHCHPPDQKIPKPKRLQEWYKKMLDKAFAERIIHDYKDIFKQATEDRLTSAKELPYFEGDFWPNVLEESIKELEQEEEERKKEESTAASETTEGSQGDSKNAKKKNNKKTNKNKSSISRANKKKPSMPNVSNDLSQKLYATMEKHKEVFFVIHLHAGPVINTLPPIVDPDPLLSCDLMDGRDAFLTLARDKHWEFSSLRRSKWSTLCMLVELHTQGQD
UniProt Q09472, 1048-1664 limits assumed: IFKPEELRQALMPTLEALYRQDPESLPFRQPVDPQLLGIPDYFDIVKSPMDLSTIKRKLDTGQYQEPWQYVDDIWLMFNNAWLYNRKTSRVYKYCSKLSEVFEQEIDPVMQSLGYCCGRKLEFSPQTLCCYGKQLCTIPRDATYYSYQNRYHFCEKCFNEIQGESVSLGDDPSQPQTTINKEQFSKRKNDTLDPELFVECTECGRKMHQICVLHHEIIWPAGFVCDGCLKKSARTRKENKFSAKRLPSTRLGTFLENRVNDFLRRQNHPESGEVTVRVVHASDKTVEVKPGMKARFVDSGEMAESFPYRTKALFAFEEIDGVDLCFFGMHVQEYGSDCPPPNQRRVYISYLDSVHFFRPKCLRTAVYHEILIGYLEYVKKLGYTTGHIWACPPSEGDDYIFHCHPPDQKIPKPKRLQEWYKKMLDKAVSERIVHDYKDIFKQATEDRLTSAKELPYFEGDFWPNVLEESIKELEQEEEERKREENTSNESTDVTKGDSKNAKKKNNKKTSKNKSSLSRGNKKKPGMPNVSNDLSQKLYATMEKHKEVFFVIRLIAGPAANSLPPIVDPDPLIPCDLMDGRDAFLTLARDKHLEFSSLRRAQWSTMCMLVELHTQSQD

Columns and labels:
[1] = test system: H3K18Ac in HB-CLS-2 cells; assay: H3K18AC in-cell western (ICW) assay; conditions: read-out: CREBBP ICW IC50 (micromolar)
Text: The following example describes methods and materials relating to an H3K18AC in-cell western assay. IC50 values (micromolar (μM)) are summarized in Table 1, Table 2, and Table 3 under the column labeled: “CREBBP ICW IC50 (micromolar).”
MATERIALS: HB-CLS-2 cell line, DMEM: Ham's F12 medium (1:1 mixture), penicillin-streptomycin, heat inactivated fetal bovine serum, D-PBS, Odyssey blocking buffer, 800CW goat anti-rabbit IgG (H+L) antibody, Licor Odyssey CLx Infrared Scanner, H3K18Ac rabbit monoclonal antibody. DRAQS fluorescent probe solution (5 mM), and 100% methanol were commercially available. HB-CLS-2 adherent cells were maintained in complete growth medium (DMEM: Ham's F12 supplemented with 10% v/v heat inactivated fetal bovine serum) and cultured at 37° C. under 5% CO2.
METHOD: Cell Treatment, ICW for detection of H3K18Ac and DNA content. HB-CLS-2 cells were seeded in assay medium (DMEM: Ham's F12 supplemented with 10% v/v heat inactivated fetal bovine serum and 1% Penicillin/Streptomycin) at a concentration of 80,000 cells per mL in a Poly-D-Lysine coated 384-well culture plates at 50 μL per well. Plates were incubated at room temperature for 30 minutes and then incubated at 37° C., 5% CO2 for additional 16-24 hours. Compounds and DMSO normalization were then added directly to the plates using a D300 Digital Dispenser and returned to the incubator at 37° C., 5% CO2 for 2 hrs. After the incubation, the contents of the plates were discarded into the appropriate waste stream and blotted on laboratory tissue to remove residual liquid. 90 μL per well of 100% ice cold methanol was added to the plates and incubated at room temperature for 15 minutes. Then methanol was then discarded into the appropriate waste stream and the plates again blotted on laboratory tissue to remove residual liquid. Plates were transferred to a Biotek 405 plate washer and washed 3 times with 100 μL per well of wash buffer (1X PBS containing 0.1% Triton X-100 (v/v)). Next, 50 μL per well of Odyssey blocking buffer with 0.1% Tween 20 (v/v) was added to each plate and incubated for 1 hour at room temperature. Blocking buffer was removed and 20 μL of primary antibody were added (α-H3K18Ac diluted 1:800 in Odyssey buffer with 0.1% Tween 20 (v/v)) and plates were incubated overnight (16 hours) at 4° C. Plates were washed 5 times with 100 μL per well of wash buffer. Next 20 μL per well of secondary antibody was added (1:400 800CW goat anti-rabbit IgG (H+L) antibody, 1:2000 DRAQ5 in Odyssey buffer with 0.1% Tween 20 (v/v)) and incubated for 1 hour at room temperature. The plates were washed 3 times with 100 μL per well wash buffer then 3 times with 100 μL per well of water. Plates were allowed to dry at room temperature then imaged on the Licor Odyssey CLx machine which measured integrated intensity at 700 nm and 800 nm wavelengths. Both 700 and 800 channels were scanned.

[2] = molecular target: CREBBP (1084-1701) (Homo sapiens, UniProt Q92793); assay: Biochemical assay for CREBBP (1084-1701), SAMDI; conditions: read-out: CREBBP Biochemistry IC50 (micromolar), SAMDI
Text: The following example describes materials and methods relating to a biochemical assay for CREBBP (1084-1701). IC50 values (micromolar (μM)) are summarized in Table 1, Table 2, and Table 3 under the column labeled: “CREBBP Biochemistry IC50 (micromolar).”
MATERIALS: Reagents 1M Tris pH 8.0, Tween 20 10%, DTT, bovine serum gelatin (BSG) 2%, Peptide #233 (biotin-H3 11-25, K14R, K23R), Acetyl-CoA, CREBBP (1084-1701), formic acid (100%), and sodium bicarbonate were commercially available.
METHODS: The effect of compounds was measured in the following biochemical assay using CREBBP (1084-1701). Enzyme mix 30 μL per well was added using a Multi-drop to wells of prepared Compound Stock plate. The enzyme was incubated in the Compound Stock plate for 30 minutes at room temperature. Substrate mix, 20 μL per well, was added to Compound Stock plate using a Multi-drop. The plate was covered and incubate 30 minutes at room temperature. The reaction was stopped with addition of 5 μL per well of 5% formic acid using a Multi-drop. The plate was Incubated for 30 minutes at room temperature. The reaction mixture was neutralized with addition of 5 μL per well of 10% sodium bicarbonate using a Multi-drop. The plate was Incubated for 35 minutes at room temperature. The reaction mixture was Transferred 2.5 μL per well to a SAMDI biochip. The plate was Incubated for 60 minutes at room temperature. The samples were washed, dried, and matrix applied to SAMDI biochip. The SAMDI biochip was then read on the mass spectrometer.

[3] = test system: 647V cells; assay: High throughput proliferation (HTP) assay; conditions: read-out: CREBBP HTP IC50 (micromolar)
Text: The following example describes methods and materials relating to a high throughput proliferation (HTP) assay. IC50 values (micromolar) are summarized in Table 1, Table 2, and Table 3 under the column labeled: “CREBBP HTP IC50 (micromolar).”
MATERIALS: 647V cell line, Dulbecco's MEM, penicillin-streptomycin, heat inactivated fetal bovine serum, D-PBS, and CellTiter-Glo were commercially available.
647V adherent cells were maintained in complete growth medium (Dulbecco's MEM supplemented with 15% v/v heat inactivated fetal bovine serum) and cultured at 37° C. under 5% CO2.
METHOD: Measurement of the effect of compound in High Throughput Proliferation (HTP) assays was performed as follows: Exponentially growing 647V cells were plated, in triplicate, in 384-well plates at the appropriate cell density in a final volume of 50 μl. Cells were incubated in the presence of increasing concentrations of compound. Viable cell number was determined at day 7 by addition of 35 μl CellTiter-Glo to each well of the plate, incubated in the dark for 30 minutes, and read on a PerkinElmer EnVision instrument to enumerate the number of cells.

[4] = molecular target: EP300 (P300(1048-1664)) (Homo sapiens, UniProt Q09472); assay: Biochemical assay for EP300, SAMDI; conditions: read-out: EP300 Biochemistry IC50 (micromolar); EP300, SAMDI
Text: The following example describes materials and methods relating to a biochemical assay for EP300. IC50 values (micromolar (μM)) are summarized in Table 1, Table 2, and Table 3 under the column labeled: “EP300 Biochemistry IC50 (micromolar).”

Row | Structure (SMILES) | IC50 [1] | IC50 [2] | IC50 [3] | IC50 [4]
1 | CCn1ncc(CN(C)C(=O)c2nc(-c3cc(CO)ccc3C)nc3ccc(Cl)cc23)c1C | 6.3 µM | 18 µM | 7.6 µM | 10 µM
2 | CCn1ncc(CN(C)C(=O)c2cc(-c3cccc(NC(=O)OC(C)(C)C)n3)nc3ccc(Cl)cc23)c1C | 6.2 µM | 7.9 µM | 5.1 µM | 3.3 µM
3 | CCn1ncc(CN(C)C(=O)c2nc(-c3cc4c(N(C)C)n[nH]c4cc3C)nc3ccc(Cl)cc23)c1C | 3.78 µM | 5.12 µM | 2.37 µM | 2.29 µM
4 | CCn1ncc(CN(C)C(=O)c2nc(-c3cc(C)c4[nH]nc(N)c4c3)nc3ccc(Cl)cc23)c1C | 0.113 µM | 0.0115 µM | 0.12 µM | 0.0235 µM
5 | CCn1ncc(CN(C)C(=O)c2nc(-c3cc4c(cc3C)CC(=O)N4)nc3ccc(Cl)cc23)c1C | 0.544 µM | 0.22 µM | 1.01 µM | 0.466 µM
